Yeast mating assay B: variants of the scFv Ab-14

The measurements come from Li et al. 2023 (doi:10.1038/s41467-023-39022-2) through the FLAb antibody collection.

All variants were tested on one target, the spike HR2 peptide PDVDLGDISGINAS (SARS-CoV-2).

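Designed CDR sequences, proposed from the first random library and measured here. Group labels follow the data file (Ctrl: baseline library sampled from a position-specific scoring matrix, with some repeated check sequences; Rand: our label for a block that the file lists under HC and that is probably the random mutants of the ten best first-round binders; En: ensemble of fine-tuned language models; GP: Gaussian process model; GPLM: also part of the Gaussian process libraries; HC: hill climbing; Gen: genetic algorithm; Gibbs: Gibbs sampling; a sequence that several methods proposed may carry one label only). AlphaSeq pools MATa yeast showing the antibodies with MATalpha yeast showing the peptide. After mating in shaken culture at 30 °C for 16 h, diploids were selected and their barcode pairs sequenced. A regression on co-assayed BCL2-family reference pairs converts the normalised counts of each replicate to an apparent Kd. Mating was done six times.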

Parent scFv Ab-14: VH joined to VL by a 15-residue (Gly4Ser)3 linker. Changes lie in the heavy chain CDRs alone.
VH: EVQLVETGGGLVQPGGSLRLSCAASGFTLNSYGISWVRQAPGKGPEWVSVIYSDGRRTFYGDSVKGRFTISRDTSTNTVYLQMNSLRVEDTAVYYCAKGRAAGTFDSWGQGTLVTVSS
VL: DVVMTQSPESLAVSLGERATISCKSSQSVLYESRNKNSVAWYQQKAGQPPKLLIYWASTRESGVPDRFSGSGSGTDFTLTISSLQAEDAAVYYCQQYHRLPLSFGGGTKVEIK

Each variant is given by its three heavy chain CDRs, as the data file delimits them; those of the parent are GFTLNSYGIS, VIYSDGRRTFYGDSVK, GRAAGTFDS. This list holds designs with at most six substitutions. The Kd shown is the geometric mean over detected replicates; a lower Kd is a better binder. A pair that was not seen in any replicate is written "nd"; this usually means weak binding, but a binder can also be missed. A sequence measured in both rounds can read differently, since the two assays cover different ranges. Of ten entries with the parent sequence, four were seen in most replicates (averages 2.2 nM to 240 nM), three in one and three in none, so single entries are noisy. The authors' rule: three or more of the six replicates give a measured affinity, fewer mean a poor binder. Where one sequence has several entries in the source, the replicates are pooled. Background: pairings of all heavy chain designs with three empty control strains gave a value in 1% of cases (median 120 nM, 5th percentile 7.0 nM). Values in that range, when seen in few replicates, are hard to tell from nonspecific mating.

* GFDLNSYGIS | VIYSDGRRTFYGDSVK | GDAAGTFDN [GP_Gibbs] = nd (0 of 6 replicates)
* GFDLNSYGIS | VIYSDGRRTAYGDRVK | GRTAGTFDS [GP_Gen] = 320 pM (6 of 6 replicates)
* GFTLNDYGIS | VIYSDGRRTQEIDSVK | GRPAGTFDS [Rand] = nd (0 of 6 replicates)
* GFELNSYGIS | VIYSDGRRTFYTDSVK | GQEAGTFDS [GP_Gen] = 950 pM (6 of 6 replicates)
* GFTLNEYGIS | VIYSDGRRTFYGDSVK | GRLAGTFDG [GPLM_HC] = nd (0 of 6 replicates)
* GFTLNSYGIS | VIYSDGRRTFYGDSVK | GLAAGTFDS [Ctrl] = nd (0 of 6 replicates)
* YFSLNSYGIS | VIYSDGRRTFYADSVK | GNAAGTFDS [GPLM_Gen] = 480 pM (2 of 6 replicates)
* GFTCNSYGIS | VIYSDGRRTFYSDSVK | GRAGGTFDS [Rand] = nd (0 of 6 replicates)
* GFELNSYGIS | VIYSDGRRTFYGDSVK | GQTAGTFDT [GP_Gen] = 11 nM (6 of 6 replicates)
* GFDLNSYGIS | VIYSDGQRTFYGDSVK | GRNAGTFDS [GP_Gen] = 2.4 nM (6 of 6 replicates)
* GFTLNQYGIS | VIYSDGRRTFYSDSVK | DRAAVFFDP [Rand] = nd (0 of 6 replicates)
* GRTLNSYGIS | VIYSDGRRTFYGDSVK | GRAAGPFDS [Ctrl] = nd (0 of 6 replicates)
* GFTLNSYGIS | VIYSDGRRTQYSDSVK | GRAAGTFDS [GPLM_HC] = nd (0 of 6 replicates)
* HFSLNEYGIS | VIYSDGRRTMYGDSVK | GRTAGTFDS [GP_Gibbs] = 2.2 nM (6 of 6 replicates)
* GFSLNEYGIS | VIYSDGRRTFYGDRVK | GRTAGTFDT [GP_Gibbs] = 1.4 nM (6 of 6 replicates)
* GFDLNSYGIS | VIYSDGRRTFYIDSVK | GVAAGTFDS [GP_Gen] = 910 pM (6 of 6 replicates)
* GLTLTSYGIS | VIYSDGRRTFYGDSVK | GRAAGTFDS [Ctrl] = 43 pM (1 of 6 replicates)
* GFDLNSYGIS | VIYSDGRRTFYADSVK | GRAVGTFDS [Ctrl] = nd (0 of 6 replicates)
* GFTLNEYGIS | VIYSDGRRTFYGDSVK | GRAAGTFAV [GP_HC] = 46 nM (5 of 6 replicates)
* GFDLNEYGIS | VIYADGRRTFYTDSVK | GTAAGTFDV [En_HC] = 220 pM (6 of 6 replicates)
* GFSLNSYGIS | VIYSDGRRTFYGDNVK | GNAAGTFDS [GPLM_Gibbs] = 6.7 nM (6 of 6 replicates)
* GFTLNEYGIS | VIYSDGRRTFYADAVK | GRCAGTFDS [GP_HC] = 16 nM (1 of 6 replicates)
* GFTINSYGIS | VIYSDGRRTFYGDSVK | GRAAGTFSL [Ctrl] = nd (0 of 6 replicates)
* GFMLNEYGIS | VIYADGRRTEHKDSVK | GRAAGTFDS [Ctrl] = 210 nM (1 of 6 replicates)
* GFSLNEYGIS | VIYSDGRRTFYHDSVK | GPAAGTFDR [GP_HC] = 35 nM (6 of 6 replicates)
* GFTLNSYGIT | VIYSDGRRTFYGDSVK | GRLAGTFDS [Ctrl] = nd (0 of 6 replicates)
* GFTLNSYGIS | VIYSDGRRTFYADDVK | GNAAGTFDS [GPLM_Gibbs] = 3.2 nM (6 of 6 replicates)
* KFDLNSYGIS | VIYSDGRRTFYGDSVK | GRTAGTFDD [GP_Gen] = 12 nM (2 of 6 replicates)
* GFNLNSYGIS | VIYSDGRRTFYDDSVK | GQKAGTFDS [GPLM_HC] = 160 nM (3 of 6 replicates)
* GFDLNSYGIS | VIYSDGRRTFYVDNVK | GRTAGTFDS [GP_Gibbs] = 920 pM (2 of 6 replicates)
* GFSLNNYGIS | VIYSDGRRTFYGDSVK | GRVAGTFDT [GPLM_Gibbs] = 1.1 nM (6 of 6 replicates)
* GFTLNSYGIS | VIYSDGRRTFYSDKVK | GRAAGTFDS [Ctrl] = 19 nM (6 of 6 replicates)
* GFTLNQYGWS | VIYSDGRRTFCSDSVK | GRAAGFFDS [Rand] = nd (0 of 6 replicates)
* TFTNNSYGIS | VIYSDGRRTFYGDSVK | GRAMGTFVS [Ctrl] = nd (0 of 6 replicates)
* GFQLESYGIS | VIYSDGRRTFYGDSVK | GRAAGTFDS [Ctrl+GP_HC] = 15 nM (5 of 12 replicates)
* GFTIESYGIS | VIYSDGRRTFYHDSVK | GRACGTFDS [Ctrl] = nd (0 of 6 replicates)
* GFSLNEYGIS | VIYSDGRRTFYGDSVK | GWTAGTFDS [GPLM_Gibbs] = 36 nM (6 of 6 replicates)
* GEDLNSYGIS | VIYSDGRRTFYGDSVK | GRTAGTFDS [GP_Gen] = 15 nM (6 of 6 replicates)
* GFTLNSYGIS | VIYSDGRRTFYTDSVK | GPAAGTFDS [Ctrl] = nd (0 of 6 replicates)
* GFDLNSYGIS | VIYSDGRRTFYSDSVK | GLAGGTFDS [GPLM_HC] = 6.8 nM (2 of 6 replicates)
* GFSLNEYGIS | VIYSDGRRTFYKDSVK | GTAAGTFDS [GP_Gen] = 4.6 nM (6 of 6 replicates)
* GFNLNEYGIS | VIYSDGRRTQYIDSVK | GRAAGTFDS [GP_HC] = 1.5 nM (6 of 6 replicates)
* GFTLNEYGIS | VILSDGRRTFYGDSVK | GRAAVTFDQ [Rand] = nd (0 of 6 replicates)
* GFTLNSYGIQ | VIYSDGRRTFYGDSVK | GRAAGLFDL [Ctrl] = nd (0 of 6 replicates)

The 4 strongest on average among those seen in every replicate, once more:

- GFDLNEYGIS | VIYADGRRTFYTDSVK | GTAAGTFDV [En_HC] -> 220 pM (6 of 6 replicates)
- GFDLNSYGIS | VIYSDGRRTAYGDRVK | GRTAGTFDS [GP_Gen] -> 320 pM (6 of 6 replicates)
- GFDLNSYGIS | VIYSDGRRTFYIDSVK | GVAAGTFDS [GP_Gen] -> 910 pM (6 of 6 replicates)
- GFELNSYGIS | VIYSDGRRTFYTDSVK | GQEAGTFDS [GP_Gen] -> 950 pM (6 of 6 replicates)